Results: PubChem BioAssay AID1457 (National Center for Advancing Translational Sciences (NCATS), 2008)
This is a selection; strong and weak results do not stand in their true shares. Activity calls are given as the source filed them. The call rests on the fitted dose curve; in most records, active means well fitted inhibition curve with a large enough effect; inconclusive means small, poorly fitted or top-dose-only effect; inactive means no such curve, though single readings can be large or run the other way.

assay: qHTS Assay for Identifying the Cell-Membrane Permeable IMPase Inhibitors: Potentiation with Lithium; conditions: CHO-M1 cells, IP1 TR-FRET (IP-One), carbachol + lithium; at 59.4 µM (top of the series) unless noted;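 further: IP1 builds up when IMPase is blocked and the TR-FRET signal falls; plate controls were basal vehicle for no effect and high inhibitor control for full effect; nearly all actives have a fitted effect of over 50% in size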

Structure (SMILES) | activity, negative = IMPase inhibition
CCN1CCC(Nc2cccc(F)c2)CC1 | inactive: -1.77%
CN(C)c1ccc(C(=O)NCC2(N3CCCCC3)CCCCC2)cc1 | inactive: 5.35%
Fc1ccccc1NC1CCN(Cc2ccccc2)CC1 | inactive: -2.07% [at 38.3 µM]
CCC(CO)(C(=O)OC1CN2CCC1CC2)c1ccccc1 (stereo not given) | inactive: 32.1% [at 38.3 µM]
COc1cc(OC)cc(C(=O)NCC2(N3CCOCC3)CCCCC2)c1 | inactive: 0.531%
CCOc1ncccc1C(=O)NCC1(N2CCOCC2)CCCCC1 | inactive: 31.8% [at 38.3 µM]
CC(C)(C)OC(=O)N1CCC(Nc2ccccc2)CC1 | inactive: -6.07%
O=C(O)C1(Nc2ccccc2)CCN(Cc2ccccc2)CC1 | inactive: 10.5%
N/C(=N\O)c1c(N)no[n+]1[O-] | inactive: -5.58% [at 38.3 µM]
O=C(OC1CN2CCC1CC2)C1c2ccccc2C=Cc2ccccc21 (stereo not given) | inactive: 26%
COc1ccc(C(=O)NCC2(N3CCOCC3)CCCCC2)cc1OC | inactive: -5.5%
c1ccc(CN2CCC(Nc3ccccc3)CC2)cc1 | inactive: 28.9% [at 38.3 µM]
ClCCOP(OCCCl)OCCCl | inactive: -6.81%
N#Cc1ccc(C(=O)NCC2(N3CCCCC3)CCCCC2)cc1 | inactive: 15.7%
O=[N+]([O-])c1cc([N+](=O)[O-])c(NCC2CCS(=O)(=O)C2)c([N+](=O)[O-])c1 (stereo not given) | inactive: 9.04%
COc1ccc(NC2CCN(C(=O)OC(C)(C)C)CC2)cc1 | inactive: -0.0592%
CN1CCN(CCOC(=O)C(O)(c2ccccc2)c2ccccc2)CC1 | inactive: 27.1%
O=C(NCC1(N2CCOCC2)CCCCC1)c1cc(=O)[nH]c2ccccc12 | inactive: -17.5% [at 38.3 µM]
O=C(NCC1(N2CCCCC2)CCCCC1)c1cccc([N+](=O)[O-])c1 | inactive: 16.3%
N#CC1(Nc2ccccc2)CCN(CCc2ccccc2)CC1 | inactive: 3.96% [at 38.3 µM]
NC1CCCCC1.NP(=O)(O)N(CCCl)CCCl | inactive: -5.53%
COc1ccc(CN(CCCl)CCCl)cc1Cl | inactive: 15.6%
CN(C)c1cccc(C(=O)NCC2(N3CCCCC3)CCCCC2)c1 | inactive: 6.62%
CC(C)c1ccc(NC2CCN(C(=O)OC(C)(C)C)CC2)cc1 | inactive: 8.76%
CCOP(=O)(Cl)Cl | inactive: -11.8%
O=C(NCC1(N2CCOCC2)CCCCC1)c1cc2ccccc2o1 | inactive: 7.37% [at 38.3 µM]
CCOC(=O)N1CCC(Nc2ccc(OC)cc2)CC1 | inactive: 3.15%
O=C(OC1CN2CCC1CC2)C1c2ccccc2Oc2ccccc21 (stereo not given) | inactive: 19.6% [at 38.3 µM]
COc1ccc(C(=O)NCC2(N3CCCCC3)CCCCC2)c(OC)c1OC | inactive: 8.16%
COc1ccc(NC2CCN(CCc3ccccc3)CC2)c(OC)c1 | inactive: 5.62% [at 38.3 µM]
